# Values of other authors in patent US8747895B2, “Orally disintegrating tablets of atomoxetine” (priority 2004, dated 2014).
# Conditions: oral administration
substance,measurement,value
(−)-N-Methyl-3-(o-tolyloxy)-propylamine hydrochloride [Atomoxetine],elimination half-life,about 5 hours
